The assay can be described thus: ORAC assay for lipophilic antioxidants (ORAClipo) with randomly methylated β-cyclodextrin as solubility enhancer. The format is biochemical. As to conditions: 7% cyclodextrin in 50% acetone-water. The source says:
Chemicals and Apparatus. Cyclodextrin derivatives were supplied from Cyclodextrin Technologies Development, Inc. (Gainesville, Fla.). Fluorescein (FL) and Trolox were purchased from Aldrich (Milwaukee, Wis.). 2,2′-azobis (2-amidino-propane) dihydrochloride (AAPH) was obtained from Wako Chemicals USA (Richmond, Va.). γ-Oryzanol was purchased from TCI America (Portland, Oreg.); nutriene (tocotrienols) was obtained from Eastman Chemicals Company (Kingsport, Tenn.). All other standards were commercially available form Sigma or Aldrich. Analyses were performed on a COBAS FARA II analyzer (Roche Diagnostic System Inc., Branchburg, N.J. using an excitation wavelength of 493 nm and an emission filter of 515 nm or alternatively, the sample may be analyzed with a FL600 microplate fluorescence reader (Bio-Tek Instruments, Inc., Winooski, Vt.) with fluorescence filters for an excitation wavelength of 485±20 nm and a emission wavelength of 530±25 nm. The plate reader is ideally controlled by software, such as KC4 3.0 (reversion 29). Sample dilution is accomplished by a Precision 2000 automatic pipetting system managed by software, such as precision power software (version 1.0), Bio-Tek Instruments, Inc., Winooski, Vt. […]
Sample Preparation. […] The sample solution was ready for analysis after further dilution with 7% cyclodextrin solution. […]

Turning to `Cc1c(C)c2c(c(C)c1O)CC[C@@](C)(CCC[C@H](C)CCC[C@H](C)CCCC(C)C)O2` [α-tocopherol], the “ORAC value per gram” value is given as 1162 μmolTE/g.

The values are drawn from patent US7132296B2, “Method for assaying the antioxidant capacity of a sample” (Medical Products Manufacturing, LLC, priority 2002, dated 2006).
